Reference: BindingDB's records for PubMed 8226867 (Synaptic Pharmaceutical, 1993)
pKi: −log10 of the molar value.

Chains of the proteins cited; added tags and fusions are not shown. Lines headed by an entry give the natural chain unless they say otherwise; changes in a name come on top.
UniProt Q62758: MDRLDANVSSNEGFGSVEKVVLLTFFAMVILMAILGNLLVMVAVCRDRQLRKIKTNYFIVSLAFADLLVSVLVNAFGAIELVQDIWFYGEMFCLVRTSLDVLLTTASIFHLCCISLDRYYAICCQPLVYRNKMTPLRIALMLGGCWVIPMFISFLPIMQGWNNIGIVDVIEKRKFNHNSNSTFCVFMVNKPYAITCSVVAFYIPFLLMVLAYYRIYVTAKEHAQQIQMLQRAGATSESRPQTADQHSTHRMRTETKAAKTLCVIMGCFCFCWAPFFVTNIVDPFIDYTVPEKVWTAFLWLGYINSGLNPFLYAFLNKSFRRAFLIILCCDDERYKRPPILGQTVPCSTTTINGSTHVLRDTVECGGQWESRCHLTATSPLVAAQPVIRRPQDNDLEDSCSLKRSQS

Biological target: 5-hydroxytryptamine receptor 4 (Rattus norvegicus, UniProt Q62758)

Question: How did the pKi turn out when NCCc1c[nH]c2ccc(O)cc12 [[3H]-5-HT] was run?
Answer: Its pKi is 6.70.
